This is an account of results in ChEMBL document CHEMBL1129938, “Synthesis and biological evaluation of nonclassical 2,4-diamino-5-methylpyrido[2,3-d]pyrimidines with novel side chain substituents as potential inhibitors of dihydrofolate reductases” (J Med Chem, 1997).

In one test the target is T1, Dihydrofolate reductase (Pneumocystis carinii, UniProt P16184).
T1 sequence (P16184 whole entry): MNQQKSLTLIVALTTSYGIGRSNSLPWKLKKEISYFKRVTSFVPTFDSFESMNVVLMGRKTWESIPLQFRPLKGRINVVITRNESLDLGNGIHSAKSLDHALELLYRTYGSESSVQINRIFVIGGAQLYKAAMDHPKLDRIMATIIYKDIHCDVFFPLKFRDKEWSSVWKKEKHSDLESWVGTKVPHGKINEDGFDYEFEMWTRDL

The target in test [1] is T2, Bifunctional dihydrofolate reductase-thymidylate synthase (Toxoplasma gondii, UniProt Q07422).
T2 sequence (Q07422 whole entry): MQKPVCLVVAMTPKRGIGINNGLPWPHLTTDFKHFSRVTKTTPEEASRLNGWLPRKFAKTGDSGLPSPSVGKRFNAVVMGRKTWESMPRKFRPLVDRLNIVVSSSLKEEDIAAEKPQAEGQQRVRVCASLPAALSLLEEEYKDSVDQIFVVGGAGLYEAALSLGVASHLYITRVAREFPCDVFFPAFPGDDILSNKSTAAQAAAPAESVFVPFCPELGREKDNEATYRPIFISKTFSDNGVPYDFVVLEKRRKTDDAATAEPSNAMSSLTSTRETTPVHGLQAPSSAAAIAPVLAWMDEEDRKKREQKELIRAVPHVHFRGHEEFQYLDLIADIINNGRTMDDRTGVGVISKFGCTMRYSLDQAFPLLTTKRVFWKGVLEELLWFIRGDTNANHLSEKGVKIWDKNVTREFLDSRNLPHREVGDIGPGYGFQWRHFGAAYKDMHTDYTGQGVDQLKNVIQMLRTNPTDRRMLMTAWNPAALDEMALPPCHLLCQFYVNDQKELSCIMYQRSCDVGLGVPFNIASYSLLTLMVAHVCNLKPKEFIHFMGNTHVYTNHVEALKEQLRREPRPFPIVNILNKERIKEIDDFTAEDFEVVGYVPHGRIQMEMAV

Each structure is given as a SMILES string.

Take `COc1cc(NCc2cnc3nc(N)nc(N)c3c2C)cc(OC)c1OC`: the values for the half-maximal inhibitory concentration (IC50) (at Dihydrofolate reductase; in test [1]) were 0.042 µM and 0.01 µM, respectively.
